Measurements taken from ChEMBL document CHEMBL1125047, “Novel glutamic acid derived cholecystokinin receptor ligands” (J Med Chem, 1990).

The chains behind the UniProt entries cited, without tags or fusion partners.
UniProt P30551, whole entry: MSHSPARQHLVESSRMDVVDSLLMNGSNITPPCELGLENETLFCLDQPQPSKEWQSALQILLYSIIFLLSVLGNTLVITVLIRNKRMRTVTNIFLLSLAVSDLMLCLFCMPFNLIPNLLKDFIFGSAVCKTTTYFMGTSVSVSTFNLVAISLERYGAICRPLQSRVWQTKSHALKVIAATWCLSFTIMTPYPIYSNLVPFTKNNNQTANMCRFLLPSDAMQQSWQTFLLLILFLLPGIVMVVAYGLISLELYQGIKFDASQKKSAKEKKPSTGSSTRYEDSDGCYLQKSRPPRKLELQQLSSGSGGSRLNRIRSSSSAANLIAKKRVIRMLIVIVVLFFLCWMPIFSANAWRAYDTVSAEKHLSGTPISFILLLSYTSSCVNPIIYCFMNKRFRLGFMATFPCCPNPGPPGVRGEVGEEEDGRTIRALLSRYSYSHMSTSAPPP

Molecular target: Cholecystokinin receptor type A (Rattus norvegicus, UniProt P30551)
Test: Inhibition of binding of [125I]- CCK-33 to rat pancreas

Structure (SMILES) | IC50 [nM]
CCCN(CCC)C(=O)C(CCC(=O)O)NC(=O)c1cc2ccccc2[nH]1 (single isomer, unassigned) | 3700
CCCCCN(CCCCC)C(=O)C(CCC(=O)O)NC(=O)c1cc2ccccc2[nH]1 (single isomer, unassigned) | 7.6
CCCN(CCC)C(=O)[C@H](CCC(=O)O)NC(=O)c1cc2ccccc2[nH]1 | 1100
CCCN(CCC)C(=O)C(CCC(=O)OCc1ccccc1)NC(=O)c1cc2ccccc2[nH]1 (single isomer, unassigned) | 810
O=C(CCC(NC(=O)c1cc2ccccc2[nH]1)C(=O)N(C1CCCCC1)C1CCCCC1)OCc1ccccc1 (single isomer, unassigned) | 200
CCCCCN(CCCCC)C(=O)C(CCC(=O)O)NC(=O)Nc1ccc(Cl)cc1 (stereo unspecified) | 140
